Results reported in paper PMC6759758, “Cofactor Selectivity in Methylmalonyl Coenzyme A Mutase, a Model Cobamide-Dependent Enzyme” (mBio, 2019).

Tested on: SmMCM (methylmalonyl-CoA mutase from S. meliloti)
Type: binding, Sinorhizobium meliloti
Settings: SmMCM Kd versus P. shermanii MCM Kd of ref 89
Method: All steps involving cobamides were conducted in the dark. The plate was centrifuged for 1 min at 3,800 rpm to level the surface of the liquid in each well. The plate was then incubated for 40 min at 30°C to allow binding, with a brief shaking step after 30 min. […] Following incubation, fluorescence emission at 340 nm (5-nm slit width) was measured upon excitation at 282 nm (5-nm slit width) using a Tecan Infinite M1000 Pro plate reader. Fluorescence, normalized to the initial value, was plotted as a function of cobamide concentration, and fitted to the following equation ([134]): F/F0=1+ΔFmax/F0([E]+[L]+Kd)−([E]+[L]+Kd)^2−4[E][L]/2[E] where F is fluorescence, F0 is initial fluorescence, [E] is total enzyme concentration, [L] is total ligand concentration, and Kd is the binding dissociation constant.

C/C1=C2/[N-][C@H]([C@H](CC(N)=O)[C@@]2(C)CCC(=O)NC[C@@H](C)OP(=O)([O-])O[C@H]2[C@@H](O)[C@@H](n3cnc4cc(C)c(C)cc43)O[C@@H]2CO)[C@]2(C)N=C(/C(C)=C3N=C(/C=C4N=C1[C@@H](CCC(N)=O)C\4(C)C)[C@@H](CCC(N)=O)[C@]\3(C)CC(N)=O)[C@@H](CCC(N)=O)[C@]2(C)CC(N)=O.[CH2-][C@H]1O[C@@H](n2cnc3c(N)ncnc32)[C@H](O)[C@@H]1O.[Co+3] [AdoCbl, adenosylcobalamin, reference compound]
Kd fold lower than the Kd reported for P. shermanii MCM: 6 fold
